Assay results as given in ChEMBL document CHEMBL4813983, “Addition of hydrophobic side chains improve the apoptosis inducibility of the human glyoxalase I inhibitor, TLSC702” (Bioorg Med Chem Lett, 2021).

Sequences of proteins named here, by UniProt entry; tags and fusion partners are left off. A change or cut given only in a name is not applied to a line headed by its entry.
UniProt Q04760: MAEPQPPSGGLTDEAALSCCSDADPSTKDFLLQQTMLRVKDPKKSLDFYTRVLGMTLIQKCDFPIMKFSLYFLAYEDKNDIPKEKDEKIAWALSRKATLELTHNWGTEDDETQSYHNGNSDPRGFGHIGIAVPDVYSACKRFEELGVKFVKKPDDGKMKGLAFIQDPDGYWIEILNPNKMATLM

Target: Lactoylglutathione lyase (Homo sapiens, UniProt Q04760)
Test: Inhibition of glyoxylase-1 in human HL60 cells assessed as increase in methylglyoxal level in culture medium at 200 uM measured after 24 hrs by HPLC-UV analysis relative to control
Type: cell-based
Settings: HL-60

fold change (FC): 6
Structure (SMILES): CCOc1cc(/C=C(\CC(=O)O)c2nc3ccccc3[nH]2)ccc1OCC(=O)Nc1ccccc1
